# Article PMC6318807 (ACS chemical neuroscience, 2018)
# Chains of the proteins cited; added tags and fusions are not shown. Lines headed by an entry give the natural chain unless they say otherwise; changes in a name come on top.
# UniProt P43116: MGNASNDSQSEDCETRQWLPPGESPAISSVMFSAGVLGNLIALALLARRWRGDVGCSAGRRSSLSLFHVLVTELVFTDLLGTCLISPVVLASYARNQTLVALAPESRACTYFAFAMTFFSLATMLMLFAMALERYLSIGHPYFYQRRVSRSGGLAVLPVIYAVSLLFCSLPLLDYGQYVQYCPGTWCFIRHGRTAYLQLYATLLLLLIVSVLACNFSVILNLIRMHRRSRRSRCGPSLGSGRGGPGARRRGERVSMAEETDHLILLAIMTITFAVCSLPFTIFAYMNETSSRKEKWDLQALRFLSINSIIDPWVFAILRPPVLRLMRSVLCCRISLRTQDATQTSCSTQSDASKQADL
# Target: EP2 receptor (Homo sapiens, UniProt P43116)
# Assay: TR-FRET cAMP assay in C6G-EP2 cells
# Format: cell-based
smiles,measurement,value
CCCCC[C@H](O)/C=C/[C@H]1[C@H](O)CC(=O)[C@@H]1C/C=C\CCCC(=O)O [PGE2],EC50,1.19 nM
